Test results: patent US4315018A, “Specific parasiticidal use of 2-benzamido-5-nitro-thiazole derivatives” (priority 1978, dated 1982)

Experiments:
[1] = system: Taenia pisiformis; test: Treatment of Taenia pisiformis in dogs (experimental infection, single oral dose); format: in vivo, dogs (beagles)
Experimental: Fifteen beagles (8 male and 7 female), ranging in age from 8 to 30 months, were individually housed in stainless-steel cages and fed with commercial dog food. Water was provided ad libitum. After 2 weeks acclimatization, each dog was exposed to infection by administering orally 14-20 cysts containing Taenia pisiformis strobilocerci obtained 24 hours before from wild rabbits. Vitality of the cysts was verified by evagination in bile of the dog.
Seven dogs (Group 1) were given the drug 6 weeks after infection with Taenia pisiformis, and the other 8 dogs (Group 2) were given the drug 8 weeks after infection.
Food and water intake, faecel consistency, vomiting, general appearance and behavior were recorded hourly during the day of treatment and twice daily thereafter.
The tapeworms that were found were then removed, counted and examined for scolices.
The emission time of the faeces for each dog was recorded during the day, when possible.
Nineteen days after treatment for Group 1, and 4 days after treatment for Group 2, the dogs were killed and the small intestines were examined in order to reveal the presence of Taenia spp. This 19-day waiting period for Group 1 allowed time for any viable scolices to redevelop, thus making them more easily visible at necropsy. […]

[2] = system: Moniezia spp.; test: Treatment of Moniezia expansa in lambs (natural infestation); format: in vivo; details: 50 mg/kg
Experimental: Twenty lambs spontaneously infested by nematodes and cestodes were removed from a flock near Limoges (Haute-Vienne), France. They were housed in sheepfold --concentrate food, 1 kg per day per lamb, water and hay, ad libitum, were provided.
The animals were assigned to treatment groups as indicated below:
Seven lambs (Group 1, black) were given a single 100 mg/kg of body weight dose of the test material dissolved in a mixture of water and gum syrup (0.5 ml/kg of body weight) orally administered with a syringe.
Seven lambs (Group 2, red) were given a single 50 mg/kg of body weight dose of the test material dissolved in a mixture of water and gum syrup (0.5 ml/kg of body weight) orally administered with a syringe.
Six lambs (Group 3, blue) were given 0.5 ml/kg of body weight of a mixture of water and gum syrup orally administered with a syringe.
48 hours after treatment, necroscopies were performed.
Scolices and gastro intestinal worm counts were carried out.

`CC(=O)Oc1ccccc1C(=O)Nc1ncc([N+](=O)[O-])s1` [PH 5776, 2-(2'-acetoxy)-benzamido-5-nitro-thiazole] was tested, and the “Number Of Worms Recovered At Necropsy” value ([1]; Group 1, 75 mg/kg, 6 weeks after infection, sacrifice on day 19) was 0, the “Number Of Worms Recovered At Necropsy” value ([1]; Group 2, 75 mg/kg, 8 weeks after infection, sacrifice on day 4) was 0 and the “Total number of scolices recovered compared with control group” value [2] was “less in that lot than in the control group”.
